{"source": "patent US20230021880A1", "about": "“Cladribine regimen for treating progressive forms of Multiple Sclerosis” (Merck Patent GmbH, priority 2017, published 2023)", "key": {"[1]": {"tested_on": "lymphocytes", "test": "Lymphocyte counts across clinical studies (pharmacodynamic effects)"}, "[2]": {"test": "Population pharmacokinetic analysis (pooled data from various studies)", "details": "population kinetic analysis"}, "[3]": {"tested_on": "mice", "details": "mice (also following treatment of the males only)"}}}
{"smiles": "Nc1nc(Cl)nc2c1ncn2[C@H]1C[C@H](O)[C@@H](CO)O1", "note": "[Cladribine, 2-chloro-2′deoxyadenosine]", "values": [{"measurement": "time after the first dose in each year at which the largest proportion of patients with grade 3 or 4 lymphopenia was seen", "setting": "[1]; across studies", "result": 2, "unit": "months"}, {"measurement": "patients whose lymphocyte counts returned to the normal range by week 144 from the first dose", "setting": "[1]; cumulative dose 3.5 mg/kg", "result": "more than 75%"}, {"measurement": "effect of age (range 18 to 65 years) or gender on pharmacokinetics", "setting": "[2]", "result": "did not show any effect"}, {"measurement": "teratogenicity", "setting": "[3]", "result": "teratogenic"}]}
